# Key:
# A375 cells = assay: cells; conditions: Homo sapiens, A-375, 72 h, read-out: A375 XTT IC50 uM
# [1] = system: phospho-ERK1/2 in A375 cells; assay: cells; conditions: Homo sapiens, A-375, 3 h, read-out: A375 ICW IC50
SMILES,IC50 (A375 cells),IC50 [1]
"Cc1cc(Oc2ccc(-c3cc4c(cc3F)ncc3nc(C)n(C5CCN(CC#N)CC5)c34)c(Cl)c2)nc(C#N)n1 [Example 59, 4-(3-chloro-4-(1-(1-(cyanomethyl)piperidin-4-yl)-7-fluoro-2-methyl-1H-imidazo[4,5-c]quinolin-8-yl)phenoxy)-6-methylpyrimidine-2-carbonitrile]",1.6 µM,609 nM
"Cc1nc2cnc3cc(F)c(-c4ccc(Oc5ncccn5)cc4Cl)cc3c2n1C1CCN(CCO)CC1 [Example 3, 2-(4-(8-(2-chloro-4-(pyrimidin-2-yloxy)phenyl)-7-fluoro-2-methyl-1H-imidazo[4,5-c]quinolin-1-yl)piperidin-1-yl)ethanol]",0.368 µM,652 nM
"Cc1nc2cnc3cc(F)c(-c4ccc(Oc5ncccn5)cc4Cl)cc3c2n1C1CCN(C(C)CO)CC1 (stereo not drawn) [Example 16, 2-(4-(8-(2-chloro-4-(pyrimidin-2-yloxy)phenyl)-7-fluoro-2-methyl-1H-imidazo[4,5-c]quinolin-1-yl)piperidin-1-yl)propan-1-ol]",0.587 µM,667 nM
"CC(O)C(=O)N1CCC(C)(n2cnc3cnc4cc(F)c(-c5ccc(Oc6ncccn6)cc5Cl)cc4c32)CC1 (stereo not drawn) [Example 27, 1-(4-(8-(2-chloro-4-(pyrimidin-2-yloxy)phenyl)-7-fluoro-1H-imidazo[4,5-c]quinolin-1-yl)-4-methylpiperidin-1-yl)-2-hydroxpropan-1-one]",0.362 µM,365 nM
"Cc1ccnc(Oc2ccc(-c3cc4c(cc3F)ncc3ncn(C5(C)CCN(C(=O)CO)CC5)c34)c(Cl)c2)n1 [Example 26, 1-(4-(8-(2-chloro-4-((4-methylpyrimidin-2-yl)oxy)phenyl)-7-fluoro-1H-imidazo[4,5-c]quinolin-1-yl)-4-methylpiperidin-1-yl)-2-hydroxyethanone]",0.011 µM,4 nM
"Cc1ccnc(Oc2ccc(-c3cc4c(cc3F)ncc3nc(C)n([C@H]5CCN(CC#N)C[C@@H]5F)c34)c(Cl)c2)n1 [Example 58, 2-((3S,4S)-4-(8-(2-chloro-4-((4-methylpyrimidin-2-yl)oxy)phenyl)-7-fluoro-2-methyl-1H-imidazo[4,5-c]quinolin-1-yl)-3-fluoropiperidin-1-yl)acetonitrile]",0.008 µM,14 nM
"COc1ncnc(Oc2ccc(-c3cc4c(cc3F)ncc3nc(C)n([C@H]5CCN(C(=O)CO)C[C@@H]5F)c34)c(Cl)c2)n1 [Example 99, 1-((3S,4S)-4-(8-(2-chloro-4-((4-methoxy-1,3,5-triazin-2-yl)oxy)phenyl)-7-fluoro-2-methyl-1H-imidazo[4,5-c]quinolin-1-yl)-3-fluoropiperidin-1-yl)-2-hydroxyethanone]",0.531 µM,35 nM
"Cc1ccnc(Oc2ccc(-c3cc4c(cc3F)ncc3nc(C)n(C5CCN(C(N)=O)CC5)c34)c(C)c2)n1 [Example 76, 4-(7-fluoro-2-methyl-8-(2-methyl-4-((4-methylpyrimidin-2-yl)oxy)phenyl)-1H-imidazo[4,5-c]quinolin-1-yl)piperidine-1-carboxamide]",0.013 µM,22 nM
"Cc1nc2cnc3cc(F)c(-c4ccc(Oc5cc(=O)n(C)cn5)cc4Cl)cc3c2n1C1CCN(C(N)=O)CC1 [Example 74, 4-(8-(2-chloro-4-((1-methyl-6-oxo-1,6-dihydropyrimidin-4-yl)oxy)phenyl)-7-fluoro-2-methyl-1H-imidazo[4,5-c]quinolin-1-yl)piperidine-1-carboxamide]",3.64 µM,1550 nM
"Cc1nc2cnc3cc(F)c(-c4ccc(Oc5cc(=O)n(C)cn5)cc4Cl)cc3c2n1C1CCN(CC#N)CC1 [Example 60, 2-(4-(8-(2-chloro-4-((1-methyl-6-oxo-1,6-dihydropyrimidin-4-yl)oxy)phenyl)-7-fluoro-2-methyl-1H-imidazo[4,5-c]quinolin-1-yl)piperidin-1-yl)acetonitrile]",1.71 µM,499 nM
"Cc1nc2cnc3cc(F)c(-c4ccc(Oc5cc(=O)n(C)cn5)cc4Cl)cc3c2n1C1CCN(C(=O)CO)CC1 [Example 72, 6-(3-chloro-4-(7-fluoro-1-(1-(2-hydroxyacetyl)piperidin-4-yl)-2-methyl-1H-imidazo[4,5-c]quinolin-8-yl)phenoxy)-3-methylpyrimidin-4(3H)-one]",0.623 µM,197 nM
"Cc1nc2cnc3cc(F)c(-c4ccc(Oc5ncccn5)cc4Cl)cc3c2n1[C@H]1CCN(CC#N)C[C@@H]1F [Example 85, 2-((3S,4S)-4-(8-(2-chloro-4-(pyrimidin-2-yloxy)phenyl)-7-fluoro-2-methyl-1H-imidazo[4,5-c]quinolin-1-yl)-3-fluoropiperidin-1-yl)acetonitrile]",0.021 µM,16 nM
"Cc1ccnc(Oc2ccc(-c3cc4c(cc3F)ncc3ncn(C5(CO)CCN(C(=O)CO)CC5)c34)c(Cl)c2)n1 [Example 41, 1-(4-(8-(2-chloro-4-((4-methylpyrimidin-2-yl)oxy)phenyl)-7-fluoro-1H-imidazo[4,5-c]quinolin-1-yl)-4-(hydroxymethyl)piperidin-1-yl)-2-hydroxyethanone]",2.8 µM,620 nM
"Cn1cccc(Oc2ccc(-c3cc4c(cc3F)ncc3ncn(C5(C)CCN(C(N)=O)CC5)c34)c(Cl)c2)c1=O [Example 75, 4-(8-(2-chloro-4-((1-methyl-2-oxo-1,2-dihydropyridin-3-yl)oxy)phenyl)-7-fluoro-1H-imidazo[4,5-c]quinolin-1-yl)-4-methylpiperidine-1-carboxamide]",0.194 µM,259 nM
"CC1(n2cnc3cnc4cc(F)c(-c5ccc(Oc6ncccn6)cc5Cl)cc4c32)CCN(CCO)CC1 [Example 17, 2-(4-(8-(2-chloro-4-(pyrimidin-2-yloxy)phenyl)-7-fluoro-1H-imidazo[4,5-c]quinolin-1-yl)-4-methylpiperidin-1-yl)ethanol]",0.132 µM,224 nM
"Cn1cnc(Oc2ccc(-c3cc4c(cc3F)ncc3ncn(C5(C)CCN(C(=O)CO)CC5)c34)c(Cl)c2)cc1=O [Example 69, 6-(3-chloro-4-(7-fluoro-1-(1-(2-hydroxyacetyl)-4-methylpiperidin-4-yl)-1H-imidazo[4,5-c]quinolin-8-yl)phenoxy)-3-methylpyrimidin-4(3H)-one]",0.708 µM,272 nM
"Cc1ccnc(Oc2ccc(-c3cc4c(cc3F)ncc3nc(C)n(C5CCN(C(=O)C(C)O)CC5)c34)c(Cl)c2)n1 (stereo not drawn) [Example 29, 1-(4-(8-(2-chloro-4-((4-methylpyrimidin-2-yl)oxy)phenyl)-7-fluoro-2-methyl-1H-imidazo[4,5-c]quinolin-1-yl)piperidin-1-yl)-2-hydroxypropan-1-one]",0.091 µM,81 nM
"Cc1ccnc(Oc2ccc(-c3cc4c(cc3F)ncc3nc(C)n(C5CCN(S(C)(=O)=O)CC5)c34)c(Cl)c2)n1 [Example 32, 8-(2-chloro-4-((4-methylpyrimidin-2-yl)oxy)phenyl)-7-fluoro-2-methyl-1-(1-(methylsulfonyl)piperidin-4-yl)-1H-imidazo[4,5-c]quinoline]",0.094 µM,100 nM
"Cc1ccnc(Oc2ccc(-c3cc4c(cc3F)ncc3ncn(C5(C)CCN(C(N)=O)CC5)c34)c(Cl)c2)n1 [Example 65, 4-(8-(2-chloro-4-((4-methylpyrimidin-2-yl)oxy)phenyl)-7-fluoro-1H-imidazo[4,5-c]quinolin-1-yl)-4-methylpiperidine-1-carboxamide]",0.004 µM,5 nM
COc1cc(Oc2nccc(C)n2)ccc1-c1cc2c(cc1F)ncc1ncn(C3(C)CCN(C(=O)C(C)O)CC3)c12 (stereo not drawn) [Example 20],0.683 µM,669 nM
"Cc1ccnc(Oc2ccc(-c3cc4c(cc3F)ncc3nc(C)n(C5CCN(C(N)=O)CC5)c34)c(F)c2)n1 [Example 70, 4-(7-fluoro-8-(2-fluoro-4-((4-methylpyrimidin-2-yl)oxy)phenyl)-2-methyl-1H-imidazo[4,5-c]quinolin-1-yl)piperidine-1-carboxamide]",0.06 µM,33 nM
"COc1cc(Oc2ncccn2)ccc1-c1cc2c(cc1F)ncc1nc(C)n([C@H]3CCN(CC#N)C[C@@H]3F)c12 [Example 62, 2-((3S,4S)-3-fluoro-4-(7-fluoro-8-(2-methoxy-4-(pyrimidin-2-yloxy)phenyl)-2-methyl-1H-imidazo[4,5-c]quinolin-1-yl)piperidin-1-yl)acetonitrile]",0.055 µM,49 nM
"Cc1nc2cnc3cc(F)c(-c4ccc(Oc5nccc(F)n5)cc4Cl)cc3c2n1C1CCN(C(=O)CO)CC1 [Example 46, 1-(4-(8-(2-chloro-4-((4-fluoropyrimidin-2-yl)oxy)phenyl)-7-fluoro-2-methyl-1H-imidazo[4,5-c]quinolin-1-yl)piperidin-1-yl)-2-hydroxyethanone]",2.63 µM,206 nM
"CC1(n2cnc3cnc4cc(F)c(-c5ccc(Oc6ncccn6)cc5F)cc4c32)CCN(C(N)=O)CC1 [Example 80, 4-(7-fluoro-8-(2-fluoro-4-(pyrimidin-2-yloxy)phenyl)-1H-imidazo[4,5-c]quinolin-1-yl)-4-methylpiperidine-1-carboxamide]",0.08 µM,60 nM
"Cc1ccnc(Oc2ccc(-c3cc4c(cc3F)ncc3ncn(C5(C)CCN(CCO)CC5)c34)c(Cl)c2)n1 [Example 15, 2-(4-(8-(2-chloro-4-((4-methylpyrimidin-2-yl)oxy)phenyl)-7-fluoro-1H-imidazo[4,5-c]quinolin-1-yl)-4-methylpiperidin-1-yl)ethanol]",0.088 µM,118 nM
"COc1cc(Oc2ncccn2)ccc1-c1cc2c(cc1F)ncc1nc(C)n([C@@H]3CCN(CC#N)C[C@H]3F)c12 [Example 61, 2-((3R,4R)-3-fluoro-4-(7-fluoro-8-(2-methoxy-4-(pyrimidin-2-yloxy)phenyl)-2-methyl-1H-imidazo[4,5-c]quinolin-1-yl)piperidin-1-yl)acetonitrile]",0.193 µM,168 nM
"Cc1nc(Oc2ccc(-c3cc4c(cc3F)ncc3nc(C)n(C5CCN(C(=O)CO)CC5)c34)c(Cl)c2)ncc1F [Example 48, 1-(4-(8-(2-chloro-4-((5-fluoro-4-methylpyrimidin-2-yl)oxy)phenyl)-7-fluoro-2-methyl-1H-imidazo[4,5-c]quinolin-1-yl)piperidin-1-yl)-2-hydroxyethanone]",0.025 µM,44 nM
